Test system: acute myeloid leukemia (AML) cell line HL60
Conditions: 72 h co-treatment of HL60 with bortezomib

## O=C(CCCCCCC(=O)Nc1ccccc1)NO [SAHA, suberoylanilide hydroxamic acid]
  ZIP synergy score (mean): 7.18

— article PMC8442681 (Chemical Science, 2021)
